Experimental data reported in patent US5952530A, “Separation processes” (Union Carbide Chemicals & Plastics Technology Corporation, priority 1998, dated 1999).

Assay: Partition coefficient Kp of the ligand between hexane and polar solvent
Details: hexane/acetonitrile solvent system; examples, Tables A and B
In the case of `c1ccc(-c2ccccc2Op2oc3ccccc3c3ccccc3o2)c(Op2oc3ccccc3c3ccccc3o2)c1` [Ligand A, reference compound], the partition coefficient Kp is reported as -1.4.
`CC(C)(C)c1cc(-c2cc(C(C)(C)C)cc(C(C)(C)C)c2Op2oc3ccc(C(C)(C)C)cc3c3cc(C(C)(C)C)ccc3o2)c(Op2oc3ccc(C(C)(C)C)cc3c3cc(C(C)(C)C)ccc3o2)c(C(C)(C)C)c1` [Ligand B] showed a partition coefficient Kp of 1.41.
`CC(C)(C)CC(C)(C)c1cc(-c2cc(C(C)(C)CC(C)(C)C)cc(C(C)(C)CC(C)(C)C)c2Op2oc3ccccc3c3ccccc3o2)c(Op2oc3ccccc3c3ccccc3o2)c(C(C)(C)CC(C)(C)C)c1` [Ligand C] showed a partition coefficient Kp of 1.58.
`CCCCCC(C)(C)c1cc(-c2cc(C(C)(C)CCCCC)cc(C(C)(C)CCCCC)c2Op2oc3ccccc3c3ccccc3o2)c(Op2oc3ccccc3c3ccccc3o2)c(C(C)(C)CCCCC)c1` [Ligand D] gave a partition coefficient Kp of 2.06.
With `CC(C)(C)CC(C)(C)c1cc(-c2cc(C(C)(C)CC(C)(C)C)cc(C(C)(C)CC(C)(C)C)c2Op2oc3ccc(C(C)(C)C)cc3c3cc(C(C)(C)C)ccc3o2)c(Op2oc3ccc(C(C)(C)C)cc3c3cc(C(C)(C)C)ccc3o2)c(C(C)(C)CC(C)(C)C)c1` [Ligand E] the partition coefficient Kp was 2.7.
Compound `CC1(c2cc(-c3cc(C4(C)CCCCC4)cc(C4(C)CCCCC4)c3Op3oc4ccccc4c4ccccc4o3)c(Op3oc4ccccc4c4ccccc4o3)c(C3(C)CCCCC3)c2)CCCCC1` [Ligand G] has a partition coefficient Kp of 1.28.
For `CCC(C)(C)c1cc(-c2cc(C(C)(C)CC)cc(C(C)(C)CC)c2Op2oc3ccccc3c3ccccc3o2)c(Op2oc3ccccc3c3ccccc3o2)c(C(C)(C)CC)c1` [Ligand H], the partition coefficient Kp was 0.778.

Assay: Partition coefficient Kp with rhodium/ligand catalyst solutions (rhodium in each phase determined)
Details: hexane/acetonitrile; 136 ppm rhodium, 0.6 wt% Ligand E, 50 psig syn gas; Example 14
For `CC(C)(C)CC(C)(C)c1cc(-c2cc(C(C)(C)CC(C)(C)C)cc(C(C)(C)CC(C)(C)C)c2Op2oc3ccc(C(C)(C)C)cc3c3cc(C(C)(C)C)ccc3o2)c(Op2oc3ccc(C(C)(C)C)cc3c3cc(C(C)(C)C)ccc3o2)c(C(C)(C)CC(C)(C)C)c1` [Ligand E], the partition coefficient Kp of the ligand was 1.72.
